{"source": "BindingDB's records for patent US10322118", "about": "(Dartmouth College, 2019)", "molecular_target": "T1, Putative hydrolase (Pseudomonas aeruginosa (strain UCBPP-PA14), UniProt A0A0H2ZD27)", "T1 sequence (A0A0H2ZD27 whole entry)": "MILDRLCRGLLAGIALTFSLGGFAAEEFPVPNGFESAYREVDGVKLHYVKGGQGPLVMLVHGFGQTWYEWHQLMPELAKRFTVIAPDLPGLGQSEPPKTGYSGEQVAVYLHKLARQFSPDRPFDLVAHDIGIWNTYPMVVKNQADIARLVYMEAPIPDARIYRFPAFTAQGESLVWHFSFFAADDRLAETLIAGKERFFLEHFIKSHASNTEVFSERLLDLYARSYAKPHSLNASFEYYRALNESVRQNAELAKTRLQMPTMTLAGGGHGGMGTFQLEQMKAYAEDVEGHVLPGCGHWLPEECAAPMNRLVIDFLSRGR", "assay": "Biochemical Characterization of Cif Inhibitors"}
{"smiles": "CC(C)c1cc(Oc2c(Br)cc(NC(=O)CC(=O)O)cc2Br)ccc1O", "note": "[US10322118, Entry 8b]", "values": [{"measurement": "IC50", "value": 2.7, "unit": "µM"}]}
